# Apparent affinities of Ab-14 variants for a coronavirus HR2 peptide

The measurements come from Li et al. 2023 (doi:10.1038/s41467-023-39022-2) through the FLAb antibody collection.

Binding partner: SARS-CoV-2 spike HR2 peptide, sequence PDVDLGDISGINAS.

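The variants were designed computationally from a first round of random CDR variants and then made and measured. Several design methods are mixed in this list. AlphaSeq pools MATa yeast showing the antibodies with MATalpha yeast showing the peptide. After mating in shaken culture at 30 °C for 16 h, diploids were selected and their barcode pairs sequenced. A regression on co-assayed BCL2-family reference pairs converts the normalised counts of each replicate to an apparent Kd. The assay was run in six technical replicates.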

Each scFv is VH, three GGGGS repeats, VL, as in the parent Ab-14, and differs from it in the CDRs of the light chain only.
VH: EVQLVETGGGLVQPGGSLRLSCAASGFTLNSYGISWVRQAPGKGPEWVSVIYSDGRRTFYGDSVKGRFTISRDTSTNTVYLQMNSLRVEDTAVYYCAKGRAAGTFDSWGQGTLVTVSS
VL: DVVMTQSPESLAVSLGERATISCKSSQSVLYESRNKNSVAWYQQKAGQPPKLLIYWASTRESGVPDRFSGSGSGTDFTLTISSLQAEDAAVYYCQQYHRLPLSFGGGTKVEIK

Variants are written as CDR1, CDR2 and CDR3 of the light chain (limits as in the source). Parent: KSSQSVLYESRNKNSVA, WASTRES, QQYHRLPLS.
Variants here have more than six changes.
Each Kd is an estimate from the mating assay, the geometric mean of the replicates in which the pair was seen; lower is stronger.
"nd" marks a missing value. The strain was present, yet no cells mated with the target were sequenced in any replicate, which points to weak or no binding.

- IVSQLMLWGYTAKNSIA | EAETRIN | QQYHHLPLF -> nd (0 of 6 replicates; controls 0 of 18)
- RVTIISDPYMENRNAIA | QTSLRAH | QQYQMLPLT -> 21 nM (6 of 6 replicates; controls 1 of 18)
- KIGQQVTYESTAKNAIA | QMTTREE | QQYHRLPLS -> 1.7 nM (6 of 6 replicates; controls 0 of 18)
- TLTQSVGMESHKKNSVA | DLSTRGS | QQYHRLPLS -> 5.6 nM (6 of 6 replicates; controls 0 of 18)
- KMSPSELYQDRNCNAVA | QASQRES | QQYHRLPLS -> 2.0 nM (6 of 6 replicates; controls 0 of 18)
- IVSQLMLWGYHAKNSIA | EAEMRLN | QQYERLPLF -> nd (0 of 6 replicates; controls 0 of 18)
- QFDLRMNEQGMQNAAIA | GATNRHT | QQYQKLPLS -> 4.8 nM (6 of 6 replicates; controls 0 of 18)
- ALSQMMDMTSRNVNSVA | DLTTREN | QQYHRLPLS -> 890 pM (6 of 6 replicates; controls 0 of 18)
- HMSMITLGGMRHKNSVA | QMTTREN | QQYDHLPLS -> 26 nM (6 of 6 replicates; controls 0 of 18)
- AISFEMESPHNHSNNVA | SESKRCS | QQYFTLPLS -> 69 nM (3 of 6 replicates; controls 2 of 18)
- HVAMLLGQQHGKQANVA | EADELMT | QQYYTLPLA -> 1.7 nM (6 of 6 replicates; controls 0 of 18)
- TLYGLSMAMSKNTNNVA | EMTTRED | QQYDRLPLI -> 37 nM (4 of 6 replicates; controls 0 of 18)
- MMGMTVTNQSNEIGNVA | DMNERFA | QQYFQLPLS -> 49 nM (6 of 6 replicates; controls 0 of 18)
- HITMGMYVKGRHHSSIA | QAETRAK | QQYDRLPLI -> 600 nM (4 of 6 replicates; controls 0 of 18)
- KLMWSVMLESRNKNSVA | QASTRME | QQYHRLPLS -> 3.3 nM (6 of 6 replicates; controls 0 of 18)
- SMYPFEVAIGEGTNNVA | HVSVRAL | QQYFRLPLV -> 4.2 µM (1 of 6 replicates; controls 0 of 18)
- KIYMMQGFQSRNADSIA | DNSTRGR | QQYHRLPLS -> 29 nM (6 of 6 replicates; controls 1 of 18)
- KLPQEMLYESRMDNSVA | NASQREE | QQYHRLPLS -> 3.8 nM (6 of 6 replicates; controls 0 of 18)
- KLQNQMGTMGKQNQAIA | QGAITRV | QQYQHLPLW -> 44 nM (3 of 6 replicates; controls 0 of 18)
- KLQQSMWYESRNKNSVA | QASQREV | QQYHRLPLS -> 1.7 nM (6 of 6 replicates; controls 2 of 18)
- IISQSFLGAYHNKNSVA | QTSERGS | QQYDRLPLS -> 570 pM (6 of 6 replicates; controls 1 of 18)
- HLNEQLVMDSKNQNHVA | STETRES | QQYFRLPFT -> 1.4 nM (6 of 6 replicates; controls 1 of 18)
- KCSQNVAIMGRGKNNVA | EMTTREE | QQYDRLPLS -> 7.4 nM (6 of 6 replicates; controls 2 of 18)
- HVSSMDMADGGIINSVA | GDKLLER | QQYMRLPLS -> 2.3 nM (6 of 6 replicates; controls 1 of 18)
- MISQSFLIGSRAKNNVA | QTSTRES | QQYDRLPLS -> 530 pM (6 of 6 replicates; controls 1 of 18)
- QLTMITGHVSMSKNNVA | EMETREE | QQYDRLPLS -> 4.1 nM (6 of 6 replicates; controls 0 of 18)
- KITQLVMETSKNKNNVA | EVSTVPV | QQYHRLPLS -> 7.4 nM (6 of 6 replicates; controls 0 of 18)
- MIAYGLRGVGRNKNSVA | NAQTRES | QHYHRLPLS -> 330 nM (2 of 6 replicates; controls 0 of 18)
- TISQMLLMQTSHKNSVA | GEETRYN | QQYHRLPLS -> 1.6 nM (6 of 6 replicates; controls 1 of 18)
- KIGQTTTYHSQVGNSIA | QTSTREE | QQYHRLPLS -> 1.4 nM (6 of 6 replicates; controls 3 of 18)
- QISMLLNFELKIGNNVA | QMETRVN | QQYDRLPLS -> 110 nM (6 of 6 replicates; controls 0 of 18)
- KISMATTFESRNHNSVA | ENSTRES | QSYHRLPLS -> 100 nM (1 of 6 replicates; controls 0 of 18)
- KIYMMTGFQYRNADSIA | DNSTRGR | QQYHRLPLS -> 73 nM (6 of 6 replicates; controls 1 of 18)
- SLAEYAHMESRNKNSVA | DNSTRES | QHYDRLPLS -> 49 nM (6 of 6 replicates; controls 2 of 18)
- KWSCSQLYDDANKNSVA | NASTRLM | QQYHRLPLS -> 9.9 nM (4 of 6 replicates; controls 0 of 18)
- TLMHHQDRYDNWKKSIA | EASIRAS | QQYQRLPLA -> 4.0 nM (6 of 6 replicates; controls 0 of 18)
- KLPMKELEMSQNTNNVA | DSAQKMK | QQYSRLPLM -> 510 pM (6 of 6 replicates; controls 2 of 18)
- KLSTVTGTEKVKGNNVA | EMETRES | QQYNRLPLA -> 2.2 nM (6 of 6 replicates; controls 2 of 18)
- TLGQVTMVESYNKNSVA | QASTRLE | QDYHRLPLS -> 120 nM (2 of 6 replicates; controls 0 of 18)
- KISQMQRVGSTHSNSIA | EEATRAK | QQYHRLPLA -> 18 nM (6 of 6 replicates; controls 4 of 18)
- KLYSSMGYLSHNKNSIA | DMSRREN | QQYHRLPLS -> 1.8 nM (6 of 6 replicates; controls 2 of 18)
- KLSQVTNSEHKVKNSIA | EMVTREK | QQYDRLPLS -> 440 nM (1 of 6 replicates; controls 0 of 18)
- KLPMATMVEMVSKNNVA | ELSTRGS | QQYNRLPLS -> 770 pM (6 of 6 replicates; controls 0 of 18)
- IISQSVLGENHNKNSVA | QTSERGS | QQYDRLPLS -> 16 nM (6 of 6 replicates; controls 3 of 18)
- MVSQLMVWGLHHKNSIA | EAQTRLN | QQYDRLPLF -> 36 nM (1 of 6 replicates; controls 0 of 18)

For reference, 3 entries of the list once more:

CDR-L1	CDR-L2	CDR-L3	Kd (apparent)	seen in	empty controls
QISMLLNFELKIGNNVA	QMETRVN	QQYDRLPLS	110 nM	6 of 6	0 of 18
ALSQMMDMTSRNVNSVA	DLTTREN	QQYHRLPLS	890 pM	6 of 6	0 of 18
HVSSMDMADGGIINSVA	GDKLLER	QQYMRLPLS	2.3 nM	6 of 6	1 of 18

Three control strains display no target. For all light chain designs, 4% of the pairings with them gave a signal, with a median of 430 nM and one signal in twenty below 38 nM, so weak values seen in few replicates may be background. For each scFv, signals with the empty controls are counted beside the result.
Values of this round are not directly comparable with the first-round values of the same sequences.
In the paper, a design with two or fewer of six values counts as a poor binder.
Of ten entries with the parent sequence, four were seen in most replicates (averages 2.2 nM to 240 nM), three in one and three in none, so single entries are noisy.